# Assay outcomes deposited in PubChem by National Center for Advancing Translational Sciences (NCATS).
# PTHR1 ag = PTHR1 (human) receptor agonism. Q03431. HEK293 GP2 PTHR1 cells, GloSensor cAMP luminescence, 1 h. Potency, µM (titrated, usually from 115 µM), without a hit: at the highest dose activation, usual class: activators. hit rate 0.075% among 410,000. AID 743266; also: potency is read from the fitted curve at half-maximal effect; nearly all actives have a fitted effect of over 55% in size
#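 HEK-293-derived GP2 cells expressing PTHR1 and a GloSensor cAMP reporter, 3,000/well, plated overnight, given luciferin plus IBMX (each 0.5 mM as added) for 1 h at 37 °C, then compound for 1 h at 37 °C. Luminescence was read after 15 min at room temperature.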
# PINK1 expr mod = PINK1 expression modulation; hit rate 0.2% among 410,000; Potency, µM (highest dose often 76.6 µM), for inactives: at the top dose activation (PINK1 increase), actives largely listed as activators; AID 624263; PINK1 immunofluorescence, high-content cytometry, 24 h; active = well fitted activation curve with a large enough effect; inconclusive = small, poorly fitted or top-dose-only effect; cell line not stated here; also: potency is read from the fitted curve at half-maximal effect; % of control where 0% means no effect; nearly all actives have a fitted effect of over 65% in size
#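 PINK1 protein level read as immunofluorescence by microplate cytometer in a fixed, stained stable cell line after 24 h exposure to five compound concentrations, with CCCP as control.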
# miR-21 reporter = miR-21 reporter, rising signal | HeLa miR-21 FLuc reporter, luciferase, 48 h | Potency, µM (top dose mostly 38.3 µM), inactives show at the top dose reporter change, positive = more light | 340,000 tested, under 10 active | AID 2288; active = well fitted rising curve with a large enough effect; inconclusive = small, poorly fitted or top-dose-only effect; inactive = no such curve, though single readings can be large or run the other way;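 further: % of control where 0% means no effect; miR-21 action dims this reporter so a rising signal means less miR-21 action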
#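 Luminescence from a firefly luciferase reporter carrying a miR-21 binding site downstream, stably expressed under a CMV promoter in HeLa cells that make miR-21 endogenously, reports miRNA modulation after 48 h compound exposure up to approximately 40uM final.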
# ERG-DNA inh = ERG Ets/DNA interaction inhibition. fluorescence polarization, His-ERG Ets domain / labelled DNA. AID 624246. Potency, µM (top dose mostly 76.9 µM), for the others: at the highest dose FP activity, negative = inhibition, most hits filed as inhibitors. hit rate 0.028% among 370,000. P11308; active = well fitted inhibition curve with a large enough effect in the polarisation, with a control signal flat; inconclusive = small, poorly fitted or top-dose-only effect, or effect the other way, or a change in a side signal; inactive = no such curve, though single readings can be large or run the other way; the % refers to the polarisation;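 also: polarization taken with two DNA probes labelled with fluorescein and Texas red; potency is read from the fitted curve at half-maximal effect; % of control where 0% means no effect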
#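 His-tagged ERG Ets domain (1 uM in the protein solution; 300mM KCl, 50mM Tris-HCl, 1mM EDTA, 1mM DTT, pH 7.5) received compound, then a probe mix of 5 nM fluorescein-DNA and 100nM Texas-615-DNA. Fluorescence polarization was read for both dyes.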
# ALOX12 inh = blocks human arachidonate 12S-lipoxygenase. P18054. purified 12hLO, xylenol orange hydroperoxide absorbance. Potency, µM (series often up to 108 µM), for inactives: at the top dose activity change, negative = inhibition, actives largely listed as inhibitors. hit rate 1.1% among 580,000; also: potency is read from the fitted curve at half-maximal effect; % is scaled to controls: 0 for no effect and ±100 for the full control effect
#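 Hydroperoxide product was detected by ferrous iron/xylenol orange as the 573 to 405 nm absorbance ratio. Arachidonic acid at 40 uM (final) was turned over for 30 min at room temperature by 150 nM human 12hLO, pH 7.0 Hepes buffer, after 15 min compound preincubation.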
# Giardia kill = Giardia lamblia killing | Giardia lamblia trophozoite viability | activity change, % at 7.66 µM, hits read low | hit rate 0.15% among 340,000; in the data active = activity change below about -80%; inconclusive = between about -30% and that limit;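 also: parasites exposed to compound for two days anaerobically before the ATP read; % is scaled to controls: 0 for no effect and ±100 for the full control effect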
#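 Each well holds 100 Giardia trophozoites and compound. After two days (48 hrs) at 37 deg C in anaerobic conditions, ATP is quantified by luminescence.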
# The depositor's hits bear a star; i = inactive; ? = inconclusive; . = not tested or not shown; [ ] = dose if it differs, or a comment. Compounds with a hit are over-represented: about 1.3% of the library has one in this group of screens. Unless noted, calls follow the shape of the dose curve; as a rule, active = well fitted curve in the direction sought with a large enough effect; inconclusive = small, poorly fitted or top-dose-only effect, or another doubt; inactive = no such curve, though single readings can be large; an effect the other way counts as inactive or inconclusive.
cpd | Molecule | PTHR1 ag | PINK1 expr mod | miR-21 reporter | ERG-DNA inh | ALOX12 inh | Giardia kill
1 | COc1cccc(-n2nnc3c(sc4nc(C)cc(C)c43)c2=O)c1 | i | -0.4% | -0.3% | 1.6% | -24.7% | .
2 | Cc1ccc(NC(=O)CSc2nnc(COc3ccc(Cl)cc3)o2)c(C)c1 | -11.9% | 2.6% | 4.9% | 0.0% | -1.1% | .
3 | Cc1cccc(OCc2nnc(SCC(=O)Nc3ccc(C)cc3C)o2)c1 | -2.5% | -0.3% | -6.0% | 2.4% | 35.5µM* | .
4 | CC[C@@]1(C(=O)OC)N[C@H](CN(C)C(=O)c2ccccc2)[C@@H]2C(=O)N(C)C(=O)[C@@H]21 | i | 0.1% | . | -5.2% | -6.0% | ?
5 | CC[C@@]1(C(=O)OC)N[C@H](CN(C)C(=O)c2ccc(F)cc2)[C@@H]2C(=O)N(C)C(=O)[C@@H]21 | i | -1.7% | . | -4.5% | 8.91µM* | 3.7
6 | COc1ccc(-c2nc(-c3cc4cc(Br)ccc4oc3=O)cs2)cc1 | -39.8% | 1.7% | -3.6% | 0.5% | -8.1% | .
7 | Cc1ccc(N2N=C(c3ccc(F)cc3)CC2c2ccco2)cc1 (stereo not given) | -17.9% | 10.0% | -30.3% | 17.0% | 25.1µM* | 0.6
8 | Fc1ccc(C2=NN(c3ccccc3)C(c3ccco3)C2)cc1 (stereo not given) | -28.3% | 15.4% | -15.9% | -11.2% | ? | 5.3
9 | O=C(O)CSc1cc(NS(=O)(=O)c2cccc([N+](=O)[O-])c2)c2ccccc2c1O | -21.1% | 12.6% | ? | -0.7% | ? | -81.0*
10 | CCc1ccc(S(=O)(=O)Nc2cc(SCC(=O)O)c(O)c3ccccc23)cc1 | -30.5% | 6.6% | ? | -1.3% | ? | -6.9
11 | COc1ccc(/C(=N\Nc2ccccc2C(=O)O)c2ccccc2)cc1 | i | -0.1% | -13.3% | 18.7% | -11.8% | -19.4
12 | Cc1cccc(N/N=C(/c2ccccc2)c2ccc(F)cc2)c1C | . | . | . | . | 5.01µM* | .
13 | CCc1nc2nc(C)c(NS(=O)(=O)c3cccs3)c(=O)n2[nH]1 | -4.2% | -1.0% | 2.5% | 11.7% | 6.31µM* | -4.2
14 | CCc1nc2nc(C)c(NS(=O)(=O)c3ccc(Br)s3)c(=O)n2[nH]1 | -1.5% | -1.8% | 1.0% | -12.2% | -12.4% | -21.6
15 | COc1cccc(NC(=O)CSc2nc3ccccc3n2C)c1 | -7.2% | 2.3% | -7.2% | -12.1% | -7.7% | -5.3
16 | O=C(CN(CCc1ccccc1)S(=O)(=O)c1ccc(Br)cc1)NCc1ccc(Cl)cc1 | -21.9% | 10.4% | -2.7% | -2.9% | 4.47µM* | .
17 | CC1CCC(NC(=O)Nc2cccs2)CC1 (stereo not given) | -8.1% | 0.9% | -39.9% | 5.2% | 12.6µM* | 26.9
18 | CCN(c1ccccc1)c1nnc(NC(=O)Nc2ccc(Br)cc2)s1 | -5.9% | 3.1% | 8.4% | 4.8% | -7.4% | .
19 | Cc1cc(C)c(C)c(S(=O)(=O)N2CCN(C(=O)C3CSC4(C)CCC(=O)N34)CC2)c1C (stereo not given) | -10.6% | 1.5% | . | 3.8% | . | -0.3
20 | CCN1/C(=C/c2ccc3cc(C)ccc3[n+]2CC)Sc2ccc3sccc3c21 | -18.7% | ? | . | 107.1% | . | -4.4
21 | CCN1/C(=C\c2ccc3cc(C)ccc3[n+]2CC)Sc2cc(C)c(C)cc21 | -50.6% | ? | . | 115.9% | 25.1µM* | -11.0
22 | CCN1/C(=C/c2ccc3cc(C)cc(C)c3[n+]2CC)Sc2cc(C)ccc21 | -87.5% | 0.0% | ? | 179.6% | 39.8µM* | 3.1
23 | CCN1/C(=C/c2ccc3cccc(C)c3[n+]2CC)Sc2ccccc21 | -8.7%[57.5 µM] | 3.98µM* | -8.5% | ? | 7.94µM* | -10.7
24 | CCC(CC)C(=O)Nc1c(C(=O)N2CCN(c3ccccc3)CC2)oc2ccccc12 | ? | 2.6% | ? | -0.7% | -1.7% | 20.7
25 | COc1ccc(CNC(=S)N/N=C/c2ccc(OC)c(OC)c2)cc1 | -6.3%[57.5 µM] | -1.6% | -20.7% | 4.0% | 140.4% | 27.9
26 | COCCCNC(=S)N/N=C/c1ccc(OC)c(Br)c1 | i | 1.4% | -4.9% | -0.4% | 25.1µM* | 20.0

# Whole records as entered above:
# CCN1/C(=C/c2ccc3cc(C)ccc3[n+]2CC)Sc2ccc3sccc3c21 in the list: PTHR1 ag: -18.7%; PINK1 expr mod: ?; miR-21 reporter: .; ERG-DNA inh: 107.1%; ALOX12 inh: .; Giardia kill: -4.4
# CCC(CC)C(=O)Nc1c(C(=O)N2CCN(c3ccccc3)CC2)oc2ccccc12 in the list: PTHR1 ag: ?; PINK1 expr mod: 2.6%; miR-21 reporter: ?; ERG-DNA inh: -0.7%; ALOX12 inh: -1.7%; Giardia kill: 20.7
